Values quoted from earlier work in patent publication US10449216B2, “Modulating drug effects against metabotropic glutamate receptor with extracellular calcium” (GEORGIA STATE UNIVERSITY RESEARCH FOUNDATION, INC., priority 2013, dated 2019).

Chains of the proteins cited; added tags and fusions are not shown. Residues count along the entry.
UniProt P23385, 19-1199: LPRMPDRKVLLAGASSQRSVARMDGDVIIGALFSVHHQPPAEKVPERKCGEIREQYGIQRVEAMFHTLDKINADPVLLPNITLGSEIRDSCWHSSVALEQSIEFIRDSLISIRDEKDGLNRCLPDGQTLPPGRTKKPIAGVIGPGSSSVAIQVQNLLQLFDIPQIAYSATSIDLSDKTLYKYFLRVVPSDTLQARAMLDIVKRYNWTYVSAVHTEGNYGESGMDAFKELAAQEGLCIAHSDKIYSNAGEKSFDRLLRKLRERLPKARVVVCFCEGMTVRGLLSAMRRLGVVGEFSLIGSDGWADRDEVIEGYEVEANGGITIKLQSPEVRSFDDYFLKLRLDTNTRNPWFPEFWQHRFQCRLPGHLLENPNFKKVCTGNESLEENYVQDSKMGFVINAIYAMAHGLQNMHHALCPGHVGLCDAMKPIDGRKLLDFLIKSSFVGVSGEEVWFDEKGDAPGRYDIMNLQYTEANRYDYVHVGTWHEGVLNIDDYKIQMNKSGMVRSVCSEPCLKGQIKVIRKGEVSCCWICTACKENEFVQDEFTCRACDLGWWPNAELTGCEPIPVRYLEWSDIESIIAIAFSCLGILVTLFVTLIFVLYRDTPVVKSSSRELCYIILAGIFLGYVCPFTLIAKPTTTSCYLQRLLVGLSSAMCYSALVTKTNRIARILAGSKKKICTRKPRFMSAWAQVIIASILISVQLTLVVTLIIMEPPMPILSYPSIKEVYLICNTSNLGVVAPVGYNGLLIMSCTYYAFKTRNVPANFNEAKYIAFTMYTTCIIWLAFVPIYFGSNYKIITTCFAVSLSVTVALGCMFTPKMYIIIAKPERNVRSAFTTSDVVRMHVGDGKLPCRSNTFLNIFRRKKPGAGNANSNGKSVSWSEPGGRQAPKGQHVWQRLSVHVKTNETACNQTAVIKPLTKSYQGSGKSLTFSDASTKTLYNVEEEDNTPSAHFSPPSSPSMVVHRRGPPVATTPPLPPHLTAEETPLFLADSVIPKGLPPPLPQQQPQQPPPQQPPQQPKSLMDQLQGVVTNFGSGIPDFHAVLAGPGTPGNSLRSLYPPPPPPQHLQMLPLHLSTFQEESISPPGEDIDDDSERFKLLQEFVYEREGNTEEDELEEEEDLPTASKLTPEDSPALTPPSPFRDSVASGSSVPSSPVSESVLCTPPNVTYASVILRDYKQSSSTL
UniProt P31424, 21-1203: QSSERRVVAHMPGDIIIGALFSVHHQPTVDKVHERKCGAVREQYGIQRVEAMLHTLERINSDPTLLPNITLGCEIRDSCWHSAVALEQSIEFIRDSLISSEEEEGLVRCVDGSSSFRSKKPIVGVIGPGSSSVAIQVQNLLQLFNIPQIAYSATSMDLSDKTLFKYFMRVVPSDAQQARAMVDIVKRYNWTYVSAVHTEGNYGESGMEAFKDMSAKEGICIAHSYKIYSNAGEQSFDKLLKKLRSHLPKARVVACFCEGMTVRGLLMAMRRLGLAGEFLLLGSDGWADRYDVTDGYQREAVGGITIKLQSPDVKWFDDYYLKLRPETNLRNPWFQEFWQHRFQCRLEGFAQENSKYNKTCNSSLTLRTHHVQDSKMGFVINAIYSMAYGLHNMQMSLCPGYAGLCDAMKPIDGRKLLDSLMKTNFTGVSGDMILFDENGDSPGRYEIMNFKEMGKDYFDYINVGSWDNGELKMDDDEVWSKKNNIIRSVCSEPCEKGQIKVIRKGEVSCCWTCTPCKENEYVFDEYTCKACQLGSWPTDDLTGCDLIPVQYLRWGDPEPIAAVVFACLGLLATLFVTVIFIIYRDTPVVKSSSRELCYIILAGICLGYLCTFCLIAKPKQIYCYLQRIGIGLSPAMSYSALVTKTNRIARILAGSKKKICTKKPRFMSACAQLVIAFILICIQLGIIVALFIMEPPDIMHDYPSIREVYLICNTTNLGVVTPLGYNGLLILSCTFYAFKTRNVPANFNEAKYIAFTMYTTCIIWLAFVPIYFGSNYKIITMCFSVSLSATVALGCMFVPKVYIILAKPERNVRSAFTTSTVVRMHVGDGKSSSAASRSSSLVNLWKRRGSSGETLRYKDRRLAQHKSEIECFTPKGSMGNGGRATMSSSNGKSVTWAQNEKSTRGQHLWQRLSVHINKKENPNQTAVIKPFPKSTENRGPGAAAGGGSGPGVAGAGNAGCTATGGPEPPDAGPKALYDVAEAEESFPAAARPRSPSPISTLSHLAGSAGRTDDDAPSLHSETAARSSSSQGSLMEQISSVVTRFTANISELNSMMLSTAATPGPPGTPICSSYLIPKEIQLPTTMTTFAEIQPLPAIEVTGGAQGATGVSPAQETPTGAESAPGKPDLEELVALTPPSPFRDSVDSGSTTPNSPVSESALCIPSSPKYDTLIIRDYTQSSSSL
UniProt P41594, 21-1212: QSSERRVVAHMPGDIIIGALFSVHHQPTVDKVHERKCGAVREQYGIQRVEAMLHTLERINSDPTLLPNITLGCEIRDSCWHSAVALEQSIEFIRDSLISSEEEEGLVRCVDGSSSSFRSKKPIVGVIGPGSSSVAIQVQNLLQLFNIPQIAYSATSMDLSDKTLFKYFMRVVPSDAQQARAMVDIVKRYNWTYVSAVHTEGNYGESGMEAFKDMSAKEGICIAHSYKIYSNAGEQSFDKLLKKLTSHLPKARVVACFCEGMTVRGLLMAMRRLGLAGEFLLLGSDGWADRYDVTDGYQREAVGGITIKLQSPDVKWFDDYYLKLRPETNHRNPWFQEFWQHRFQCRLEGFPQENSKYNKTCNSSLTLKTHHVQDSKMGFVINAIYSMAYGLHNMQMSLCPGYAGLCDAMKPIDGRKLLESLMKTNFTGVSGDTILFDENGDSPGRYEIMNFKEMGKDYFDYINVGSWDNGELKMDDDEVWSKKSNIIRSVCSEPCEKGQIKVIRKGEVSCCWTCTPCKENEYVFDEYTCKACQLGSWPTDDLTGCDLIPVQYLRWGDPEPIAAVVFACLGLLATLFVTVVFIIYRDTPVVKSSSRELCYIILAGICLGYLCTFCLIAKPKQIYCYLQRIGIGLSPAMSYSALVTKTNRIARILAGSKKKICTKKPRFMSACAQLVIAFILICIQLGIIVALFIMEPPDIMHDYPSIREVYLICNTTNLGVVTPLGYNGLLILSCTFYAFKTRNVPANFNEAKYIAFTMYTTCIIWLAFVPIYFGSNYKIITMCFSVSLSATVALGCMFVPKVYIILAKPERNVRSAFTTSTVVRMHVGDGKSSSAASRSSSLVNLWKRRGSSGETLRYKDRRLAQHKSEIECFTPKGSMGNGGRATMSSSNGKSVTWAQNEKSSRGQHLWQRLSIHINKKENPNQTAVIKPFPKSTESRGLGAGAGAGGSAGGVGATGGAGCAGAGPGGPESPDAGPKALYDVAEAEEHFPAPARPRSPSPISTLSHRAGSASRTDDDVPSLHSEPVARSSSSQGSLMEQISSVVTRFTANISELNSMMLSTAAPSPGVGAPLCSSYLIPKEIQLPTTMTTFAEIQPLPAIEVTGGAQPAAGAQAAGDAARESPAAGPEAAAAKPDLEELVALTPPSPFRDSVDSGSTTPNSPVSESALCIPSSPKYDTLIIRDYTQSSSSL

What was measured:
mGluR1 = mGluR1 (Rattus norvegicus, UniProt P23385); details: mGluR1, Sp. Rn; cited from earlier work
mGluR5 [1] = target: mGluR5 (Rattus norvegicus, UniProt P31424); details: mGluR5, Sp. Rn; cited from earlier work
mGluR5 [2] = target: mGluR5 (Homo sapiens, UniProt P41594); details: mGluR5, Sp. Hs; cited from earlier work

## N[C@@]1(C(=O)O)CC[C@@H](C(=O)O)C1 [(1S,3R)-ACPD]
mGluR1
  Affinity (pKi): 5.5-6.1 pKi

## N#Cc1cccc(C(=O)Nc2cc(-c3ccccc3)nn2-c2ccccc2)c1 [CDPPB]
mGluR5 [1]
  Affinity (pEC50): 7.7 pEC50
mGluR5 [2]
  Affinity (pEC50): 7.6-8.0 pEC50

## Cc1cccc(C#Cc2ccccc2)n1 [MPEP]
mGluR5 [2]
  Affinity (pIC50): 7.4-7.7 pIC50

## Cc1n[14c](C#Cc2cccnc2)cs1 [[14C]MTEP]
mGluR5 [1]
  Affinity (pIC50): 7.7 pIC50
